Source: US20210024604A1, “NOVEL INSULIN DERIVATIVES” (Novo Nordisk A/S, priority 2009, published 2021)

Chains of the proteins cited; added tags and fusions are not shown. Residues count along the entry.
UniProt P02768, 25-609: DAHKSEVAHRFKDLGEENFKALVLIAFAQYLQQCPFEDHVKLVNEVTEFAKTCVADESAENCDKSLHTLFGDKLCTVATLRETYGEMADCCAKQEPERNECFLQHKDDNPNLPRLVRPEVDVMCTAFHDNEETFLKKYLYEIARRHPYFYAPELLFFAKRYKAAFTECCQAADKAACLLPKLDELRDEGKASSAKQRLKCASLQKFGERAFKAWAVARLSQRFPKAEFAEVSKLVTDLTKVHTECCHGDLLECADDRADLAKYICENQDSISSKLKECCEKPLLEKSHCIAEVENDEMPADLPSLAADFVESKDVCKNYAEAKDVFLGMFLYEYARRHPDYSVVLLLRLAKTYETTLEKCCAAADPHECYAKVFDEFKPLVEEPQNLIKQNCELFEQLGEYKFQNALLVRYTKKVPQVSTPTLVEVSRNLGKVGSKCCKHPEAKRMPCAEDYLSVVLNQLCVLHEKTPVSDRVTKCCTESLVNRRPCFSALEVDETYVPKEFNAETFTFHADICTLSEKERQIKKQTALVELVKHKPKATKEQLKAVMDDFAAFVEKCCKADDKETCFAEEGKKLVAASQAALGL

Biological target: T1, human serum albumin (Homo sapiens, UniProt P02768)
T1 construct: purchased Chromtech Inc HSA 50.3 column
Test: Elution from immobilized human serum albumin column; shift in retention time with glucose in eluent
Type: binding
Conditions: retention time with no glucose vs 50 mM glucose in eluent; HSA column; marked *: eluted with a gradient to 70% buffer B
Experimental: The glucose sensitivity of insulin albumin binding can be determined by tuning glucose levels in the elution buffer and determine the shift in retention time as a function of the glucose concentration, table 1 below.
T 37° C., flow 0.7 mL/min, 20 uL of 10 uM samples, UV monitor 220 nm.
Compounds marked with an asterix were eluted with a gradient to 70% buffer B.

Substance: A22M-15-(3,5-Diboronobenzoylamino)pentadecanoyl B29M-15-(3,5-diboronobenzoylamino)pentadecandioyl A14E A22K B25H desB30 Human Insulin [Example 15]
- Δ Rt: 1.0 min
